SMILES strings stand for the structures.

In US20210171464A1 (OLON S.P.A., priority 2017, published 2021) one finds solubility data, which are given here for one compound.

This series is described as follows: solubility in organic solvents and water. It counts as physicochemical. Conditions: various organic solvents and water; compared with the 6 crystalline forms of WO2006/037043.

For the compound `CC(C)COc1ccc(CNC(=O)N(Cc2ccc(F)cc2)C2CCN(C)CC2)cc1.CC(C)COc1ccc(CNC(=O)N(Cc2ccc(F)cc2)C2CCN(C)CC2)cc1.O=C(O)C(O)C(O)C(=O)O` [N-(4-fluorobenzyl)-N-(1-methylpiperidin-4-yl)-N′-(4-(2-methylpropyloxy)-phenylmethyl)carbamide hemitartrate], the solubility entry was “better solubility”.
